Results taken from US20070142411A1, “Use of cyclooxygenase-2 selective inhibitors for the treatment of schizophrenic disorders” (priority 2003, published 2007).

Amino acid sequences for entries named in this document (tags omitted). Residues count along the entry.
UniProt P23219, 24-599: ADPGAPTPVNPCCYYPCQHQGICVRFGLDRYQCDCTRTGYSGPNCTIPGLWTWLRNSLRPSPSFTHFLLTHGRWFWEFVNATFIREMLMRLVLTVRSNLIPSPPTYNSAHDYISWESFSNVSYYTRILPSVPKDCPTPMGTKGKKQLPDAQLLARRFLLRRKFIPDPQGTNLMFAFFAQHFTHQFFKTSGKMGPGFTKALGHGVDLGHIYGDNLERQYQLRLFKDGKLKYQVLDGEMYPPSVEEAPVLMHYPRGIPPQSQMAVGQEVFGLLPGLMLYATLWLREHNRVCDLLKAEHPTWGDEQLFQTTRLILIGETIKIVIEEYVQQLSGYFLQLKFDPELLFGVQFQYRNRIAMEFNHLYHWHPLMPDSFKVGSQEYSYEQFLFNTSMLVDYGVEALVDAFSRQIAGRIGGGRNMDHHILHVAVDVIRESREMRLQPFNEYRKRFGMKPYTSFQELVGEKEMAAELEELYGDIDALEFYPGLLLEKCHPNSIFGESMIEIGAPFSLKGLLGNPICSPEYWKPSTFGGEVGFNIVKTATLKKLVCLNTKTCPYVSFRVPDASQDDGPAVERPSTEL

Molecular target: T1, human COX-1 (Homo sapiens, UniProt P23219)
T1 construct: expressed in transfected cells; host or cells: COS cells (stably transfected)
Assay: Inhibition of PGE2 release in COS cells stably transfected with human COX-1
Format: cell-based
Conditions: COS cells transfected with human COX-1, 30 μM arachidonic acid

IC50: > 100 µM
SMILES: CS(=O)(=O)c1ccc(-c2c(-c3ccc(F)cc3)nn3nc(S(C)(=O)=O)ccc23)cc1 [2.4(iii), 2-(4-Fluoro-phenyl)-6-methanesulfonyl-3-(4-methanesulfonyl-phenyl)-pyrazolo[1,5-b]pyridazine]
